{
  "source": "paper PMC10362367",
  "about": "(Molecular Metabolism, 2023)",
  "molecular_target": "human FLAG-CaMKK2 (Homo sapiens, UniProt Q96RR4)",
  "assay": "In vitro CaMKK2 activity assay",
  "format": "biochemical",
  "conditions": "CaMKK2 vs CaMKK1",
  "data": [
    {"smiles": "O=C(O)c1ccc2c3c1cccc3c(=O)n1c3ccccc3nc21", "note": "[STO-609, 7-Oxo-7h-benzimidazo-[2,1-a]benz[de]isoquinoline-7-one-3-carboxylic acid]", "values": [
      {"measurement": "inhibition of CaMKK2 more sensitive than CaMKK1", "value": "2–3 fold"}
    ]}
  ]
}
